Results taken from paper PMC6728138, “Quantitative mapping of protein-peptide affinity landscapes using spectrally encoded beads” (eLife, 2019).
Several values for one entry are separate records, joined by “and”; a condition that tells them apart may be missing. Equal entries are not always repeated. Where two headings read alike, the source gives them in different places.

Experiments:
calcineurin (CN) [1] = biological target: T1, calcineurin (CN) (Homo sapiens, UniProt Q08209); test: MRBLE-pep calcineurin binding assay (concentration-dependent); details: for CN binding in words: 'Triplicate low' dataset
T1 construct: human calcineurin A isoforms (truncated at residue 400); made in house; host or cells: E. coli BL21 (DE3)
Experimental: MRBLEs were prepared by transferring a 20 μL aliquot from a 600 μL suspension (∼3000–8000 beads depending on pellet size) to a 100 μL PCR strip (20 μL for each CN concentration), exchanging buffer via 3 cycles of iterative pelleting, decanting, and resuspension with 0.1% PBST containing 5% BSA, pH = 7.5 (100 μL), and then left mixing at ∼5 °C on a rotator in the same wash buffer overnight (∼14 hr). MRBLEs were then buffer exchanged once again with CN binding buffer (50 mM Tris pH = 7.5, 150 mM NaCl, 0.1% TWEEN 20) via three iterative cycles of pelleting, decanting, and resuspension.
After incubation, MRBLEs were pelleted, decanted, and washed once with 0.1% PBST (100 μL). After a final round of pelleting and decanting, 20 μL of 0.1% PBST was added and the beads were transferred to a quartz microscope slide for imaging.
The affinity ( Kd ) for each peptide in a MBRLE library was determined via a two-step nonlinear regression using a single-site binding model:(1) Ii=(Imax[CNtotal])/(Kd,i+[CNtotal]) where Ii is the median measured fluorescence intensity for each peptide, Kd,i is the dissociation constant for that interaction, [ CNtotal ] is total CN concentration, and Imax is a global variable representing the fluorescence intensity once MRBLE-pep beads are saturated. First, we determined the global saturation value ( Imax ), by globally fitting the top 80% highest-intensity MRBLE codes. Next, we globally fit the entire data set using this Imax value to yield an estimated absolute affinity ( Kd ) for all peptides in the library. […] Differences in binding affinity were calculated relative to a reference peptide using the standard equation:(2) ΔΔG=RTln(Kd,i/Kd,ref)
Next, we used this reference value and calculated differences in binding affinity ( ΔΔG ) to estimate absolute Kd values for each peptide within the calibration and full calibration libraries (Figure 2—source data 1, Figure 2—source data 2, Figure 5—source data 1, Figure 5—source data 2, Figure 5—source data 3, Figure 5—source data 4).

calcineurin (CN) [2] = details: ref Supplementary file 1; read-out: Kd Range; cited from earlier work
Excerpt: Supplement elife-40499-supp1.docx, table 1 | column: Kd Range (µM) || Figure 2. MRBLEs allow quantitative measurement of CN-SLiM interactions in high-throughput. (A) Sequence alignment for previously identified CN PxIxIT binding sites (see Supplementary file 1 for references). (B) Crystal structure showing CN heterodimer bound to the A238L inhibitor including both PxIxIT and LxVP binding sites (PDB ID: 4F0Z). […] Each peptide was synthesized on three different MRBLE codes (light grey lines); affinities were ... || Figure 5. Calibrated in vitro affinities for a range of peptides. (A) In vitro measurements of binding affinities for high-affinity binders identified by combining favorable residues. (B) Correlation between measured ΔΔG values for a full technical replicate (new bead synthesis, new peptide synthesis, and new calcineurin protein purification) for the library shown in (A). […] Figure 5—source data 1. Concentration-dependent binding for calibration library, replicate 1. Figure 5 ... || (+ 1 further places)

[3] = test system: NFAT-driven luciferase activity in HEK293T cells; test: In vivo calcineurin activity assay (NFAT dual luciferase reporter); type: cell-based
Excerpt: The ultimate goal of mapping CN-SLiM binding energy landscapes is to improve understanding of CN target substrate recognition and enable rational design of in vivo inhibitors. To test the degree to which in vitro MRBLE-pep affinities predict in vivo inhibition, we used a previously developed dual luciferase reporter assay to assess the activity of the NFAT2 transcription factor in HEK293T cells (Figure 6A) ([Grigoriu et al., 2013]). NFAT2 must be dephosphorylated by CN to accumulate in the nucleus, where it activates transcription of its target genes, and this interaction can be inhibited by peptides or small molecules that binds to CN. Reduction of NFAT2-dependent transcriptional activity upon expression of a competing PxIxIT peptide therefore reflects, quantitatively, the affinity of the inhibitor peptide for CN. Candidate PxIxIT inhibitors were co-expressed as GFP-fusion proteins within cells to enhance their stability and facilitate direct measurement of inhibitor concentrations.
PxIxIT peptides were fused to eGFP in pEGFPc1 vector. HEK293T cells were transfected with pEGFPc1 clones, pNFAT-Luc and CMV-Renilla in a 6-well plate format. 18 hr post transfection, 1μM FK506 or DMSO (vehicle) was added to the media as needed. 36 hr post transfection, cells were treated with 1 mM Ionomycin and 1 mM phorbol 12,13 di-butyrate to activate calcineurin and AP-1 (via PKC) respectively. 6 hr after pathway activation, cells were collected, washed in PBS and re-suspended in DMEM media. 80% of the cells were used to measure luciferase activity and renilla using the Dual-Glo assay system (Promega) with three technical replicates. The remaining cells were frozen and stored at −80°C. Cell lysates were prepared in RIPA buffer. 15–20 μg of lysate was analyzed by Western for expression of GFP. GFP signal was normalized to either actin or tubulin. Luciferase activity (normalized to renilla expression) was further normalized to eGFP expression. Data represent at least three experimental replicates.

[4] = bold value over the codes, read-out: kd, 'Triplicate high' library

CC[C@H](C)[C@H](NC(=O)CNC(=O)[C@H](C)N)C(=O)N[C@H](C(=O)N1CCC[C@H]1C(=O)N[C@H](C(=O)N[C@@H](Cc1c[nH]cn1)C(=O)N[C@H](C(=O)N[C@H](C(=O)N[C@@H](Cc1c[nH]cn1)C(=O)N[C@@H](C)C(=O)N1CCC[C@H]1C(=O)NCC(=O)N[C@@H](CCC(=O)O)C(=O)N[C@@H](CCC(=O)O)C(N)=O)[C@@H](C)O)C(C)C)[C@@H](C)CC)C(C)C [SCRAMBLED]
ddG_PKIVIT (calcineurin (CN) [1]): 1.239 and 2.254 and 1.287 and 2.444
CN binding in words (calcineurin (CN) [1]): no binding
MED (calcineurin (CN) [1]; median bead signal at Conc 63 (Conc_uM 0.063), N 27, file calibration_redo.csv): 209.5
MED (calcineurin (CN) [1]; median bead signal at Conc 125 (Conc_uM 0.125), N 13, file calibration_redo.csv): 279.5
MED (calcineurin (CN) [1]; median bead signal at Conc 250 (Conc_uM 0.25), N 15, file calibration_redo.csv): 362.5
MED (calcineurin (CN) [1]; median bead signal at Conc 500 (Conc_uM 0.5), N 23, file calibration_redo.csv): 494.5
MED (calcineurin (CN) [1]; median bead signal at Conc 1000 (Conc_uM 1), N 28, file calibration_redo.csv): 538
MED (calcineurin (CN) [1]; median bead signal, Conc 32 (Conc_uM 0.032), file full_calibration2.csv, N = 85 beads): 116
MED (calcineurin (CN) [1]; median bead signal, Conc 32 (Conc_uM 0.032), file full_calibration.csv, N = 23 beads): 135
MED (calcineurin (CN) [1]; median bead signal, Conc 63 (Conc_uM 0.063), file calibration2.csv, N = 78 beads): 148.25
MED (calcineurin (CN) [1]; median bead signal, Conc 63 (Conc_uM 0.063), file full_calibration.csv, N = 13 beads): 175
MED (calcineurin (CN) [1]; median bead signal, Conc 125 (Conc_uM 0.125), file calibration2.csv, N = 112 beads): 147.75
MED (calcineurin (CN) [1]; median bead signal, Conc 125 (Conc_uM 0.125), file full_calibration2.csv, N = 94 beads): 95
MED (calcineurin (CN) [1]; median bead signal, Conc 250 (Conc_uM 0.25), file calibration2.csv, N = 75 beads): 137
MED (calcineurin (CN) [1]; median bead signal, Conc 250 (Conc_uM 0.25), file full_calibration2.csv, N = 79 beads): 87.5
MED (calcineurin (CN) [1]; median bead signal, Conc 250 (Conc_uM 0.25), file full_calibration.csv, N = 32 beads): 221.75
MED (calcineurin (CN) [1]; median bead signal, Conc 500 (Conc_uM 0.5), file calibration2.csv, N = 93 beads): 148
MED (calcineurin (CN) [1]; median bead signal, Conc 500 (Conc_uM 0.5), file full_calibration.csv, N = 21 beads): 322
MED (calcineurin (CN) [1]; median bead signal, Conc 1000 (Conc_uM 1), file calibration2.csv, N = 104 beads): 137.75
MED (calcineurin (CN) [1]; median bead signal, Conc 1000 (Conc_uM 1), file full_calibration2.csv, N = 90 beads): 50.25
MED (calcineurin (CN) [1]; median bead signal, Conc 1000 (Conc_uM 1), file full_calibration.csv, N = 30 beads): 343
MED (calcineurin (CN) [1]; median bead signal, Conc 2000 (Conc_uM 2), file full_calibration2.csv, N = 57 beads): 10

CC[C@H](C)[C@H](NC(=O)[C@@H](NC(=O)[C@@H]1CCCN1C(=O)[C@H](Cc1c[nH]cn1)NC(=O)[C@@H]1CCCN1C(=O)CNC(=O)[C@H](C)N)C(C)C)C(=O)N[C@H](C(=O)N[C@H](C(=O)N[C@H](C(=O)NCC(=O)N1CCC[C@H]1C(=O)N[C@@H](Cc1c[nH]cn1)C(=O)N[C@@H](CCC(=O)O)C(=O)N[C@@H](CCC(=O)O)C(N)=O)[C@@H](C)O)[C@@H](C)CC)C(C)C
Kd (calcineurin (CN) [1]): 0.98 µM

PVIVIT [PVIVIT PxIxIT peptide fused to eGFP, expressed in HEK293T cells]
CN binding in words (calcineurin (CN) [1]): strong binding
Kd (calcineurin (CN) [2]): 0.5 µM
NFAT-driven luciferase activity, normalized, relative to empty vector (Data) ([3]; all other peptides in vivo experiment, replicate 1): 0.1127
NFAT-driven luciferase activity, normalized, relative to empty vector (Data) ([3]; all other peptides in vivo experiment, replicate 2): 0.1248
NFAT-driven luciferase activity, normalized, relative to empty vector (Data) ([3]; all other peptides in vivo experiment, replicate 3): 0.1641
NFAT-driven luciferase activity, normalized to renilla and eGFP expression, relative to empty vector (Data) ([3]; initial in vivo experiment, replicate 1, FK506 1 μM): 0.1885
NFAT-driven luciferase activity, normalized, relative to empty vector (Data) ([3]; initial in vivo experiment, replicate 2, FK506 1 μM): 0.14
NFAT-driven luciferase activity, normalized, relative to empty vector (Data) ([3]; initial in vivo experiment, replicate 3, FK506 1 μM): 0.1434

CC[C@H](C)[C@H](NC(=O)[C@H](CCCNC(=N)N)NC(=O)[C@@H]1CCCN1C(=O)[C@H](CO)NC(=O)[C@H](CCC(=O)O)NC(=O)[C@H](CC(C)C)NC(=O)[C@H](C)NC(=O)[C@@H]1CCCN1)C(=O)N[C@@H](CCC(=O)O)C(=O)N[C@H](C(=O)N[C@H](C(=O)N[C@@H](CO)C(=O)N[C@@H](CS)C(=O)N[C@@H](CC(C)C)C(=O)NCC(=O)N[C@@H](CC(C)C)C(N)=O)[C@@H](C)O)[C@@H](C)CC
Kd (calcineurin (CN) [1]; [4]): 57.9 ± 22.6 µM

CC[C@H](C)[C@H](NC(=O)[C@@H](NC(=O)[C@@H]1CCCN1C(=O)[C@@H](N)Cc1c[nH]cn1)C(C)C)C(=O)N[C@@H](C)C(=O)N[C@H](C(=O)N[C@H](C(=O)NCC(=O)N1CCC[C@H]1C(=O)N[C@@H](Cc1c[nH]cn1)C(N)=O)[C@@H](C)O)C(C)C
Kd (calcineurin (CN) [1]; kd, 'Triplicate high' library): 237 ± 70.6 µM

CC[C@H](C)[C@H](NC(=O)[C@@H](NC(=O)[C@@H](NC(=O)[C@@H](NC(=O)[C@@H]1CCCN1C(=O)[C@@H](N)Cc1c[nH]cn1)C(C)C)[C@@H](C)CC)C(C)C)C(=O)N[C@@H](CC(N)=O)C(=O)NCC(=O)N1CCC[C@H]1C(=O)N[C@@H](Cc1c[nH]cn1)C(N)=O
Kd (calcineurin (CN) [1]; [4]): 26.9 ± 1.34 µM

CC[C@H](C)[C@H](NC(=O)[C@H](CCCNC(=N)N)NC(=O)[C@@H]1CCCN1C(=O)[C@H](CO)NC(=O)[C@H](CC(C)C)NC(=O)CNC(=O)[C@H](CO)NC(=O)[C@H](C)N)C(=O)N[C@@H](CCC(=O)O)C(=O)N[C@H](C(=O)N[C@H](C(=O)N1CCC[C@H]1C(=O)N[C@@H](CO)C(=O)N[C@@H](Cc1c[nH]cn1)C(=O)N[C@@H](CCC(=O)O)C(=O)N[C@@H](CC(C)C)C(N)=O)[C@@H](C)O)[C@@H](C)CC
CN binding in words (calcineurin (CN) [1]): measurable binding
Kd (calcineurin (CN) [2]): 6 µM

CC[C@H](C)[C@H](NC(=O)[C@H](C)NC(=O)[C@@H](NC(=O)[C@@H]1CCCN1C(=O)[C@H](CCC(=O)O)NC(=O)[C@H](CCSC)NC(=O)[C@H](CCCNC(=N)N)NC(=O)[C@@H](N)CCCCN)[C@@H](C)CC)C(=O)N[C@H](C(=O)N[C@H](C(=O)N[C@H](C(=O)N[C@@H](CC(=O)O)C(=O)N[C@H](C(=O)N[C@@H](CCC(=O)O)C(=O)N[C@H](C(=O)N[C@@H](CO)C(N)=O)[C@@H](C)CC)[C@@H](C)O)[C@@H](C)O)[C@@H](C)CC)[C@@H](C)CC
CN binding in words (calcineurin (CN) [1]): measurable binding
Kd (calcineurin (CN) [2]): 0.4 to 1.5 µM
